Literature values, collected in patent US10889565B2, “4-hydroxy-3-sulfonylpyridin-2(1H)-ones as APJ receptor agonists” (BRISTOL-MYERS SQUIBB COMPANY, priority 2016, dated 2021).

Chains of the proteins cited; added tags and fusions are not shown. Lines headed by an entry give the natural chain unless they say otherwise; changes in a name come on top.
UniProt P35414: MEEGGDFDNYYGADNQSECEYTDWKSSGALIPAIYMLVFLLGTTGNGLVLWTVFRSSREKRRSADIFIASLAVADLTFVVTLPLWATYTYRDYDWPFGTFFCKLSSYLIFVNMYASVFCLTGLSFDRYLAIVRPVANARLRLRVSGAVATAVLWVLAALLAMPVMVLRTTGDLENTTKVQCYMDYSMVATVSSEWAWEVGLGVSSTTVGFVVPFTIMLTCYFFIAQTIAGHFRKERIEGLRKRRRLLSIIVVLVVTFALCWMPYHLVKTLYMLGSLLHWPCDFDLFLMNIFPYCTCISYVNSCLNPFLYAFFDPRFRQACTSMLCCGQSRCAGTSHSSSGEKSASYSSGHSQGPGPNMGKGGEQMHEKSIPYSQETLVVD

Target: APJ receptor (Homo sapiens, UniProt P35414)
Details: reported, Pitkin et al. 2010; cited from earlier work

For Apelin, the binding affinity is listed as “sub-nanomolar range”.
